Here are results for one molecule from US4497812A, “2-Amino-5-aminomethyl-2-oxazolines, compositions and use” (Societe Cortial, S.A., priority 1982, dated 1985).

A short description of this series: in vivo. To be noted: mouse, mice, read-out: Percentage of mortality. How it is done:
The toxicity was determined in mice for various ways of administraion.

Where two headings read alike, the source gives them in different places.

On to `NC1=NCC(CN2CCN(c3ccccc3)CC2)O1` (centres unmarked) [Example 11], for which the mortality (commonly the percentage killed) (ip, intraperitoneally 200 mg/kg) is 0% and the mortality (po, orally 300 mg/kg) stood at 0%.
